Values of other authors as cited in article PMC4604036 (NeuroImage, 2015).

Test system: PDE10A
Conditions: read-out: PDE10A inhibition IC50; ref Tu et al., 2010; cited from earlier work

COc1ccc(Cc2nccc3cc(OC)c(OC)cc23)cc1OC [Papaverine, reference compound]
IC50: 36 nM
